Results from patent US20160331662A1, “Compositions that Inhibit and Prevent the Formation of Dental Caries and Methods of Using the Same” (priority 2014, published 2016).

Protein sequences, listed by entry. Tags and fused reporters are not part of them. Residues count along the entry.
UniProt Q9UGM3, 102-463 limits assumed: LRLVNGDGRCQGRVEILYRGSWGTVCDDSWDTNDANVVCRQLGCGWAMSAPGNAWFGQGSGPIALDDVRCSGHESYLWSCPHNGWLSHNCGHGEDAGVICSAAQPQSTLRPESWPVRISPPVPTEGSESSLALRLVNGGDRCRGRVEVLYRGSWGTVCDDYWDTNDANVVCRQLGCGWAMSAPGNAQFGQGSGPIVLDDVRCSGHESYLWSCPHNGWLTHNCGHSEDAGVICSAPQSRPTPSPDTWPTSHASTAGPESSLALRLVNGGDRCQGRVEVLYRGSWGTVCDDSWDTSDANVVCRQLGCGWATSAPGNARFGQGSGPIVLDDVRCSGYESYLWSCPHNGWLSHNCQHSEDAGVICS
UniProt Q9UGM3, 102-202: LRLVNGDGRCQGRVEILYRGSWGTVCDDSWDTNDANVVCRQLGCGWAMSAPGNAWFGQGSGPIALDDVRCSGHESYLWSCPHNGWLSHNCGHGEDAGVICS

Tests used:
[1] = molecular target: iSRCR123 (Deglycosylated) (human) (UniProt Q9UGM3); test: SPR, analyte over ligand deglycosylated on the CM5 chip, 1:1 Langmuir model
iSRCR123 (human) = iSRCR123 (human) (UniProt Q9UGM3); test: SPR, analyte over ligand immobilized on CM5 chip, 1:1 Langmuir model
iSRCR1 (human) = iSRCR1 (human) (UniProt Q9UGM3); test: SPR, analyte over ligand immobilized on CM5 chip, 1:1 Langmuir model; SPR with calcium; immobilized iSRCR1, not deglycosylated
[2] = molecular target: iSRCR1 (Deglycosylated) (human) (UniProt Q9UGM3); test: SPR, analyte over ligand deglycosylated on the CM5 chip, 1:1 Langmuir model

| Substance | Ka [1] [M⁻¹] | Ka (iSRCR123 (human)) [M⁻¹] | Kd (iSRCR123 (human)) [nM] | Ka (iSRCR1 (human)) [M⁻¹] | Kd (iSRCR1 (human)) [nM] | Ka [2] [M⁻¹] |
| --- | --- | --- | --- | --- | --- | --- |
| C123^SspB (S. gordonii DL1 SspB, residues 913-1406) (from UniProt P16952 913-1406) | 161000 | 1.61e+06 | 621 | 2.16e+06 | 464 |  |
| A3VP1^SspB (S. gordonii DL1 SspB, residues 386-805) (from UniProt P16952 386-805) |  |  |  | 2.99e+07 | 34.1 | 2.96e+06 |
